Source: PubChem BioAssay AID463210 (The Scripps Research Institute Molecular Screening Center, 2010)
The list shows a part of the results, in another mix than the full data. Some salts or complexes appear as unconnected parts, following the source record. Calls of active or inactive are those of the source.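 How the source made its calls: active means percent activation above the screen-wide mean plus 3 SD (cut at about 25% in these data); inactive means the rest.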

Protein sequences, listed by entry. Tags and fused reporters are not part of them.
UniProt P55210, whole entry D23A/D198A/D206A: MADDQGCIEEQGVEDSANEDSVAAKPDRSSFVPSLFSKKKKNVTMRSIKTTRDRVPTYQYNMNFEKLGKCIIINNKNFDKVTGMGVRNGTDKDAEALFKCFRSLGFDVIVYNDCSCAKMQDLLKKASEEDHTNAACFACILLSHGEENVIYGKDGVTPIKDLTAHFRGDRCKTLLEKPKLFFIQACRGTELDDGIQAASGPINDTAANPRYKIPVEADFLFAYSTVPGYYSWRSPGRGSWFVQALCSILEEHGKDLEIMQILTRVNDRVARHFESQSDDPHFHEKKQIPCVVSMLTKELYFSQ

Molecular target: Caspase-7 (Homo sapiens) (UniProt P55210)
Assay: procaspase-7 activators, primary screen, counter-screen for procaspase-3 activator project, biochemical, absorbance, HTS, human (AID 463210)
Settings: recombinant procaspase-7, Ac-DEVD-pNA absorbance 405 nm; at 8.5 µM; hits give high values; D23A/D198A/D206A triple mutant, cannot self-cleave; scale: DMSO 0, 5 µM enzyme 100

SMILES | activation
COc1ccccc1OP(C)(=O)Nc1ccc(Br)cc1 (stereo unspecified) | inactive: 2.53%
COc1ccc(OP(C)(=O)Nc2ccccn2)cc1 (stereo unspecified) | inactive: 8.63%
Cc1c(NP(C)(=O)Oc2ccc(C(C)C)cc2)c(=O)n(-c2ccccc2)n1C (stereo unspecified) | inactive: -1.01%
O=[N+]([O-])c1cc([N+](=O)[O-])c(Nc2ccccn2)c([N+](=O)[O-])c1 | inactive: 4.64%
CCc1ccc(OP(C)(=O)O)cc1 | inactive: -4.19%
CP(=O)(Nc1ccccn1)Oc1ccccc1 (stereo unspecified) | inactive: 4.08%
COc1ccccc1OP(C)(=O)Nc1ccc(C)cc1C (stereo unspecified) | inactive: 12.6%
Cc1cc(C)cc(OP(C)(=O)Nc2cccc(C(F)(F)F)c2)c1 (stereo unspecified) | inactive: 7.09%
COc1ccc(OP(C)(=O)Nc2ccccc2Br)cc1 (stereo unspecified) | inactive: 2.09%
COc1ccccc1OP(C)(=O)Nc1ccc(C)c(C)c1 (stereo unspecified) | inactive: 7.43%
Cc1nc2ccc3ccccc3c2o1.O=[N+]([O-])c1cc([N+](=O)[O-])c(O)c([N+](=O)[O-])c1 | inactive: 1.53%
CP(=O)(Nc1ccc(Cl)cc1Cl)Oc1ccccc1 (stereo unspecified) | inactive: -1.46%
CP(=O)(OCCOc1ccccc1)OCCOc1ccccc1 | inactive: -0.48%
Nc1ccc2c(ccc3cccnc32)n1.O=[N+]([O-])c1cc([N+](=O)[O-])c(O)c([N+](=O)[O-])c1 | inactive: -4.23%
CP(=O)(OC12CC3CC(CC(C3)C1)C2)OC12CC3CC(CC(C3)C1)C2 | inactive: 2.23%
CCOC(=O)c1ccc(NP(C)(=O)Oc2ccc(Cl)cc2)cc1 (stereo unspecified) | inactive: 4.98%
CCN(CC)CC(O)COC(=O)C(O)(c1ccccc1)C1CCCCC1 (stereo unspecified) | inactive: 18.8%
COc1ccc(OP(C)(=O)Nc2ccc(Br)cc2)cc1 (stereo unspecified) | inactive: -0.59%
CP(=O)(Oc1ccccc1)N1CCOC1=O (stereo unspecified) | inactive: -1.29%
CCc1ccc(OP(C)(=O)Nc2cccnc2)cc1 (stereo unspecified) | inactive: 12.9%
COc1ccccc1OP(C)(=O)Nc1c(C)n(C)n(-c2ccccc2)c1=O (stereo unspecified) | inactive: -8.98%
O=C(OCCCN1CCCC1)C(O)(c1ccccc1)C1CCCCC1 (stereo unspecified) | inactive: 3.25%

SMILES | activation
CP(=O)(Nc1ccc(Cl)cc1)Oc1ccc(F)cc1 (stereo unspecified) | inactive: 5.33%
COc1ccccc1OP(C)(=O)Nc1ccccc1Br (stereo unspecified) | inactive: -4.26%
CC(C)(C)c1ccc(OP(C)(=O)O)cc1 | inactive: 3.04%
CN(C)C(=O)c1c([N+](=O)[O-])cc([N+](=O)[O-])cc1[N+](=O)[O-] | inactive: -0.19%
CP(=O)(Nc1ccc(SC(F)(F)F)cc1)Oc1ccc(F)cc1 (stereo unspecified) | inactive: 2.28%
CCOP(C)(=S)SCC(=O)NC(C)(CC)C(=O)O (stereo unspecified) | inactive: 7.54%
CP(=O)(Nc1ccc2c(c1)OCCO2)Oc1ccccc1 (stereo unspecified) | inactive: 5.47%
Cc1ccccc1NP(C)(=O)Nc1ccccc1C | inactive: -5.25%
COc1ccc(OP(C)(=O)Nc2cccc(Br)c2)cc1 (stereo unspecified) | inactive: -15.1%
COc1ccc(NP(C)(=O)Oc2ccccc2OC)cc1 (stereo unspecified) | inactive: 14.4%
CN(C)CCOC(=O)C(O)(c1ccccc1)C1CCCCC1 (stereo unspecified) | inactive: 5.05%
O=[N+]([O-])c1cc([N+](=O)[O-])c(NCC2CCS(=O)(=O)C2)c([N+](=O)[O-])c1 (stereo unspecified) | inactive: 5.37%
COc1ccc(OP(C)(=O)Nc2ccc(SC(F)(F)F)cc2)cc1 (stereo unspecified) | inactive: 10.5%
CCOC(=O)c1ccc(NP(C)(=O)Oc2ccc(F)cc2)cc1 (stereo unspecified) | inactive: -1.53%
CCN(CC)CCCOC(=O)C(O)(c1ccccc1)C1CCCCC1 (stereo unspecified) | inactive: 12.8%
CCCCCOc1ccc(NP(C)(=O)Oc2ccc(Cl)cc2Cl)cc1 (stereo unspecified) | inactive: 0.04%
O=[N+]([O-])c1cc([N+](=O)[O-])c(OC2CCCCC2O)c([N+](=O)[O-])c1 (stereo unspecified) | inactive: -2.75%
CP(=O)(Nc1ccccc1)Oc1ccc(F)cc1 (stereo unspecified) | inactive: 6.16%
CC(C)c1ccc(OP(C)(=O)Nc2ccc(SC(F)(F)F)cc2)cc1 (stereo unspecified) | inactive: -8.1%
CP(=O)(Nc1ccccc1F)Oc1ccccc1 (stereo unspecified) | inactive: -4.99%
O=C(OCCN1CCN(CCOCc2ccccc2)CC1)C(O)(c1ccccc1)c1ccccc1 | inactive: 4.43%
O=C(OC1CN2CCC1CC2)c1ccc([N+](=O)[O-])cc1 (stereo unspecified) | inactive: 8.77%

SMILES | activation
COc1ccc2c(c1O)-c1c(O)c(OC)cc3c1[C@H](C2)[N+](C)(C)CC3.O=[N+]([O-])c1cc([N+](=O)[O-])c([O-])c([N+](=O)[O-])c1[O-] | inactive: -13.9%
COc1ccccc1OP(C)(=O)Nc1cccc(Br)c1 (stereo unspecified) | inactive: 3.46%
Cc1cc(C)cc(OP(C)(=O)Nc2ccc(C)cc2C)c1 (stereo unspecified) | inactive: 5.19%
CCOC(=O)c1ccc(NP(C)(=O)Oc2cc(C)cc(C)c2)cc1 (stereo unspecified) | inactive: -1.69%
Cc1cc(C)cc(OP(C)(=O)Nc2ccccn2)c1 (stereo unspecified) | inactive: 3.05%
CP(=O)(Nc1cccc(Br)c1)Oc1ccccc1 (stereo unspecified) | inactive: 3.79%
Cc1ccc(C)c(NP(C)(=O)Oc2ccccc2)c1 (stereo unspecified) | inactive: 8.57%
O=C(O)c1cccc(Nc2c([N+](=O)[O-])cc([N+](=O)[O-])cc2[N+](=O)[O-])c1 | inactive: -8.68%
CC1=NCCc2c1[nH]c1ccccc21.O=[N+]([O-])c1cc([N+](=O)[O-])c(O)c([N+](=O)[O-])c1 | inactive: 10.1%
CC1=C2N=C(C=C3N=C(C(C)=C4[N-][C@@](C)([C@@H]5N=C1[C@](C)(CCC(=O)NC[C@@H](C)OP(=O)([O-])O[C@H]1[C@@H](O)[C@@H](n6cnc7cc(C)c(C)cc76)O[C@@H]1CO)[C@H]5CC(N)=O)[C@@](C)(CC(N)=O)[C@@H]4CCC(N)=O)[C@@](C)(CC(N)=O)[C@@H]3CCC(N)=O)C(C)(C)[C@@H]2CCC(N)=O.[C-]#N.[Co+3] | inactive: 13.6%
O=[N+]([O-])c1cc([N+](=O)[O-])c(Nc2nnnn2CCO)c([N+](=O)[O-])c1 | inactive: -11%
CCOC(=O)C(CC)C1=NC(C)(C)Cc2ccccc21.O=[N+]([O-])c1cc([N+](=O)[O-])c(O)c([N+](=O)[O-])c1 (stereo unspecified) | inactive: -3.11%
CN1CCCCC1COC(=O)C1(O)c2ccccc2CCc2ccccc21 (stereo unspecified) | inactive: -3.71%
COc1ccccc1OP(C)(=O)Nc1c(C)cccc1C (stereo unspecified) | inactive: 9.27%
CCCOc1ccc(NP(C)(=O)Oc2ccc(Cl)cc2)cc1 (stereo unspecified) | inactive: -3.55%
CP(=O)(Nc1ccc(SC(F)(F)F)cc1)Oc1ccccc1 (stereo unspecified) | inactive: 2.79%
O=[N+]([O-])c1cc([N+](=O)[O-])c(-n2nnc3ccccc32)c([N+](=O)[O-])c1 | inactive: -13.9%
O=[N+]([O-])c1cc([N+](=O)[O-])c(-c2cnn(-c3ccccc3)c2)c([N+](=O)[O-])c1 | inactive: 3.77%
Cc1nc2ccc3ccccc3c2s1.O=[N+]([O-])c1cc([N+](=O)[O-])c(O)c([N+](=O)[O-])c1 | inactive: -17.7%
CP(=O)(Nc1ccc(SC(F)(F)F)cc1)Oc1ccc(Cl)cc1 (stereo unspecified) | inactive: 9.07%
Cc1cccc(C)c1OP(C)(=O)Nc1ccc(SC(F)(F)F)cc1 (stereo unspecified) | inactive: -6.62%
CP(=O)(Oc1ccccc1)OC(c1ccccc1)C(F)(F)F (stereo unspecified) | inactive: 5.88%

SMILES | activation
CP(=O)(NC(=O)Nc1ccccc1)Oc1ccccc1 (stereo unspecified) | inactive: -3.65%
CCc1ccc(OP(C)(=O)N2CCN(c3ccc([N+](=O)[O-])cc3)CC2)cc1 (stereo unspecified) | inactive: -7.9%
Cc1cc(C)cc(OP(C)(=O)Nc2ccc(SC(F)(F)F)cc2)c1 (stereo unspecified) | inactive: -8.46%
CCOP(C)(=S)SCC(=O)NC(C)C(=O)O (stereo unspecified) | inactive: 7.64%
O=[N+]([O-])c1cc([N+](=O)[O-])c(O)c([N+](=O)[O-])c1.c1ccc(Oc2ccncc2)cc1 | inactive: -1.58%
CCOC(=O)c1ccc(NP(C)(=O)Oc2ccc(OC)cc2)cc1 (stereo unspecified) | inactive: -3.05%
CP(=O)(Nc1ccccn1)Oc1ccc(Cl)cc1 (stereo unspecified) | inactive: -0.81%
CP(=S)(Nn1cnnc1)Oc1ccccc1 (stereo unspecified) | inactive: -30.7%
CP(=O)(Nc1ccccc1Br)Oc1ccccc1 (stereo unspecified) | inactive: 3.26%
O=[N+]([O-])c1cc([N+](=O)[O-])c(Nc2cccnc2)c([N+](=O)[O-])c1 | inactive: -1%
CC(C)(C)c1ccc(OP(C)(=O)Nc2ccc(SC(F)(F)F)cc2)cc1 (stereo unspecified) | inactive: 0.2%
Cc1cccc(C)c1OP(C)(N)=O (stereo unspecified) | inactive: -1.66%
O=[N+]([O-])c1ccc2c(c1)C=Nc1ccccc1O2 | inactive: -2.03%
CCOC(=O)c1ccc(NP(C)(=O)Oc2ccccc2)cc1 (stereo unspecified) | inactive: 5.76%
COc1ccccc1OP(C)(=O)Nc1ccc(C)cc1 (stereo unspecified) | inactive: 10.9%
Cc1ccc(NP(C)(=O)Oc2ccccc2)c(C)c1 (stereo unspecified) | inactive: 0.17%
COc1ccccc1OP(C)(=O)Nc1cc(Cl)ccc1C (stereo unspecified) | inactive: 7.48%
COc1ccc(OP(C)(=O)Nc2cccc(F)c2)cc1 (stereo unspecified) | inactive: 10.7%
Cc1cc(C)cc(OP(C)(N)=O)c1 (stereo unspecified) | inactive: -0.39%
CCN(CC)CCCOC(=O)C(O)(c1ccccc1)c1ccccc1 | inactive: 2.43%
